# Test results: US20260001864A1, “COMPOUND CONTAINING SULFAMIDE STRUCTURE, AND PREPARATION METHOD THEREFOR AND APPLICATION THEREOF, AND PHARMACEUTICAL COMPOSITION AND APPLICATION” (Nanjing Shuohui Pharmatechnology Co., Ltd, priority 2021, published 2026)
# Chains of the proteins cited; added tags and fusions are not shown.
# UniProt P27112, whole entry: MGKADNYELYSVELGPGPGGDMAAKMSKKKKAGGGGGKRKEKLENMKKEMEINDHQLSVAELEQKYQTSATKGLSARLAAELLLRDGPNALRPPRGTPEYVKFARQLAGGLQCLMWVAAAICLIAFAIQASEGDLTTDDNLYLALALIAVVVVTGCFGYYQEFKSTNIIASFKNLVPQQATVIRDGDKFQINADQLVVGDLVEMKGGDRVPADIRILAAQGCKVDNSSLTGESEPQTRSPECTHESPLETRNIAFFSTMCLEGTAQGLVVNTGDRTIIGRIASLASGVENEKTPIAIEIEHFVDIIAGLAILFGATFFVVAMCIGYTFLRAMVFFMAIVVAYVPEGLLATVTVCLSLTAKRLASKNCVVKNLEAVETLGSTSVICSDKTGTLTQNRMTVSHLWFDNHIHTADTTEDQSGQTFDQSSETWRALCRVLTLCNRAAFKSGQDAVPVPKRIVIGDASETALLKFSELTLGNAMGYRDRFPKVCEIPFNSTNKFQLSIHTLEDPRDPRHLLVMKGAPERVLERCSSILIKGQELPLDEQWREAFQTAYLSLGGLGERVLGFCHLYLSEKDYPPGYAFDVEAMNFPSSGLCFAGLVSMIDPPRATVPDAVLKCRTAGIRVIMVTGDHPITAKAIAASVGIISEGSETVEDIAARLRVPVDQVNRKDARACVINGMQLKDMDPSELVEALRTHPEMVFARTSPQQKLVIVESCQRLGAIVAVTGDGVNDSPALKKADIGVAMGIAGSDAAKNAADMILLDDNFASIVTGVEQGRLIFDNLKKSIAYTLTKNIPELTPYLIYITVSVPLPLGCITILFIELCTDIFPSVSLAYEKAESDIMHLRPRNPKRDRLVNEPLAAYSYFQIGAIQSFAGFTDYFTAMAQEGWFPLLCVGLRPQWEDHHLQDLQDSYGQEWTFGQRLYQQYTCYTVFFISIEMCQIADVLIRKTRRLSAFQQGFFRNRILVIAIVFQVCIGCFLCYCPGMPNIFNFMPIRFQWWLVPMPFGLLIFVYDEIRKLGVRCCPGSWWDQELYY
# UniProt P18597, whole entry partner: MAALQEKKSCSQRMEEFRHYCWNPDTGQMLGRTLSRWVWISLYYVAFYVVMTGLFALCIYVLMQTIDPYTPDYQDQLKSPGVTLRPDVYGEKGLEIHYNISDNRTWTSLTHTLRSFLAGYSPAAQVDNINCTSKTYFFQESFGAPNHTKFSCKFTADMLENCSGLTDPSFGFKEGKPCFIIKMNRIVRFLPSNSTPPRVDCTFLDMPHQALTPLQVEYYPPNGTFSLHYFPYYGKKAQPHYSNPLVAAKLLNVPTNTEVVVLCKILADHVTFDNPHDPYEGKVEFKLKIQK
# Experiments:
# [1] = molecular target: H+/K+-ATPase (rabbit gastric mucosal microsomes) (Oryctolagus cuniculus (Rabbit), UniProt P27112); test: In vitro screening test of H+/K+-ATPase inhibition (malachite green); conditions: read-out: IC50, inhibitory effect on H+/K+-ATPase activity, pH 6.5, 37° C. 30 min, tested form: HCl
# Protocol: This test example evaluates the inhibitory effects of the compounds of the present invention on the activity of H+/K+-ATPase by an in vitro screening test, and expresses them with the IC50 values of the compounds (obtained by calculating the inhibition rates at different concentrations). […]
# 5 μL of rabbit gastric mucosal microsomes (H^+/K^+-ATPase) was added to 45 μL of buffer II, then 5 μL of compound solution was added, and then 5 μL of 5 mM ATP solution was added to start the reaction and pre-react at 37° C. for 30 min. 15 μL of malachite green solution was added to terminate the reaction, balancing was conducted at room temperature for 20 min, and read the optical absorbance at 620 nm. […]
# [2] = system: histamine-induced gastric acid secretion; test: Inhibition of histamine-induced gastric acid secretion in rats (pylorus ligation); conditions: SD rats, total acid over 3 h after histamine, tested form: HCl
# Protocol: 70 SPF-level SD rats with a weight of 180-220 g (Hangzhou Medical College (produced)), randomly grouped by weight, including negative control groups (isovolumetric saline) and model control groups (isovolumetric saline), and compounds obtained in the foregoing preparation examples of the present invention (i.e., compounds or compound hydrochlorides) (2 mg/kg or 4 mg/kg), 10 rats each group, including 5 males and 5 females. The rats were fasted, but were allowed to drink water for 24 h. After 24 h, the rats were given the compound at 1 ml/100 g by gavage, once in each group, and the rats in the negative control groups and the model groups were given an equal volume of saline by gavage. After that, the rats were anesthetized with chloral hydrate 300 mg/kg (1 ml/100 g) and fixed on a rat plate, and the abdominal wall was incised along the abdominal midline from the subxiphoid process of the sternum, and the incision was approximately 2-3 cm and was made on the left costal margin, and the stomach was exposed to the incision by gently pushing it with the fingers upwards. The pylorus was ligated with a thread under the pylorus (other neighboring vessels were not ligated), and the abdominal wall incision was sutured. The animals were given histamine dihydrochloride (30 mg/10 ml/kg) subcutaneously after 1 h of gavage of the test compound or saline. […]
# [3] = Rat tissue distribution test (oral, LC-MS-MS); set-up: Hepatic drug concentration: unit not given here; conditions: tested form: HCl; for Hepatic drug concentration / Exposure level (0-4 h): oral 4 mg/kg; for Hepatic drug concentration: rat; for Ratio of exposure level: liver set to 1, oral 4 mg/kg; for Exposure level (0-4 h): male SD rats
# Protocol: Three healthy male SD rats (body weight range 220-250 g, Zhejiang Charles River) were taken and assigned into one group (n=3). Compound 48, Compound A9 or comparison compound Vonoprazan were administered orally at a dose of 4 mg/kg.
# Solvent for preparing pharmaceutical preparations: Pure water. The rats were fasted 4 h prior to the administration. […] The tissue was homogenized, and the corresponding blank tissue was used for preparation of a calibration curve and QC quantification. Blood samples should be centrifuged to extract plasma within 1 hour of collection and kept on crushed ice prior to the centrifugation. Plasma samples obtained by centrifugation were stored in a freezer until analysis. Centrifugation conditions: 4-10° C., 8000 rpm, 6 min. The concentration of the sample was determined by LC-MS-MS (MS03: Shimadzu LC30AD and API 4000)), and the exposure data were calculated by WINNOLIN software.
IC50 [1] [nM],"Hepatic drug concentration ([3]; liver, 15 min)","Hepatic drug concentration ([3]; liver, 1 h)","Hepatic drug concentration ([3]; liver, 2 h)","Hepatic drug concentration ([3]; liver, 4 h)","Hepatic drug concentration ([3]; liver, 24 h)",Ratio of exposure level ([3]; liver),Exposure level (0-4 h) ([3]; liver) [ng·h/mL],Ratio of exposure level ([3]; plasma),Exposure level (0-4 h) ([3]; plasma) [ng·h/mL],Ratio of exposure level ([3]; stomach),Exposure level (0-4 h) ([3]; stomach) [ng·h/mL],Compound,Acid inhibition rate ([2]; 2 mg/kg by gavage) [%],Acid inhibition rate ([2]; 4 mg/kg by gavage) [%]
169,–,–,–,–,–,–,–,–,–,–,–,CNCc1cc(-c2ccc(OCc3cccc(F)n3)cc2F)n(S(=O)(=O)c2cccnc2)c1,–,–
–,1541.3,846,262,31.5,1.3,1,2326.8,0.02,43.1,5.7,13224.3,CNCc1cc(-c2ccc(OCC3CC3)cc2F)n(S(=O)(=O)c2cccnc2)c1,83,93
